{"sequences": {"note": "The chains behind the UniProt entries cited, without tags or fusion partners.", "UniProt P51570, whole entry": "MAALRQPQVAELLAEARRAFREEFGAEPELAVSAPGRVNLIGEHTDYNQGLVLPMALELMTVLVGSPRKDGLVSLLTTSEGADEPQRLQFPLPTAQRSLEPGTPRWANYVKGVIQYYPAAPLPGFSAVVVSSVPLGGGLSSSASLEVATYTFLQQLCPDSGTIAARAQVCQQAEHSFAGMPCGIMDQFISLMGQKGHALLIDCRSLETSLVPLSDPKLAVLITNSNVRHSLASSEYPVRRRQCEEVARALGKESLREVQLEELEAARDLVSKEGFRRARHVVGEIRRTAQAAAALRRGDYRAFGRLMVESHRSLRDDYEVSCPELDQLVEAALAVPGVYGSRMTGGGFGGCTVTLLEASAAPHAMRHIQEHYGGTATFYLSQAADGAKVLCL"}, "source": "PubChem BioAssay AID1347072", "about": "(National Center for Advancing Translational Sciences (NCATS), 2019)", "note": "The list shows a part of the results, in another mix than the full data. Calls of active or inactive are those of the source. The call rests on the fitted dose curve; in most records, active means well fitted curve in the direction sought with a large enough effect; inconclusive means small, poorly fitted or top-dose-only effect, or another doubt; inactive means no such curve, though single readings can be large or run the other way.", "data": [{"molecular_target": "Galactokinase (Homo sapiens) (UniProt P51570)", "assay": "qHTS Assay for Inhibitors of Human Galactokinase (GALK): NCGC Sytravon Library Screen", "conditions": "recombinant GALK, Kinase-Glo ATP luminescence, 1 h; at 57.5 µM (top of the series)", "from_the_text": "Inherited deficiency of galactose-1-phosphate uridyltransferase (GALT) can result in a potentially lethal disorder called Classic Galactosemia (OMIM 230400). Several lines of evidence indicate that an elevated level of galactose-1-phosphate (gal-1-p), the product of galactokinase (GALK), is a major, if not sole, pathogenic mechanism in patients with classic galactosemia. Therefore, finding inhibitors of GALK is a potential novel therapy for this inherent metabolic disease and is the long term goal of this project. This screen is run against the NCGC Sytravon compound library collection. GALK (provided by Kent Lai) was assayed using ATP and D-(+)-Galactose (Sigma-Aldrich cat# G0750) as substrates. Promega Kinase-Glo Plus technology was used to detect kinase activity. Reactions with and without GALK were used as negative and positive controls together with Protein Tyrosine Phosphatase CD45 inhibitor (EMD Bioscience cat# 540215) which is shown to inhibit GALK activity. Decrease in activity corresponds to inhibition of the enzyme is the desired outcome for this assay. NIH Molecular Libraries Probe Production Network [MLPCN] NIH Chemical Genomics Center [NCGC] Grant: R03 MH085689-01 PI Name: Kent Lai Ph.D., University of Utah\nNCGC Assay Protocol Summary: Three uL/well of ATP-buffer solution (35 uM ATP, 20mM HEPES pH8.0, 5 mM MgCl2, 60 mM NaCl, 1 mM DTT, 0.01% BSA final concentration) was dispensed into 1536-well, assay plates (Greiner, solid white medium-binding plates) with Aurora Discovery BioRAPTR Flying Reagent Dispenser (FRD; Beckton-Dickenson). Compound solution (23 nL) was transferred to the assay plate using the Kalypsys 1536-pin tool. One uL/well GALK-galactose solution (5 nM GALK, 100 uM galactose, 20 mM HEPES pH8.0, 5 mM MgCl2, 60 mM NaCl, 1 mM DTT, 0.01% BSA final concentration) was then added using the FRD yielding a total kinase reaction volume of 4 uL/ well. After 1 hour of room temperature incubation, 4 uL Kinase-Glo Plus reagent was added for a final assay volume of 8 uL/ well. Luminescence was detected with the ViewLux plate reader (Perkin Elmer, Waltham, MA) after 10 min incubation using a 1 sec exposure time and 2x binning.", "values": [{"smiles": "COc1ccccc1C(=O)NCC1(N2CCOCC2)CCCCC1", "activity, negative = inhibition": "inactive: -9.4%"}, {"smiles": "CCCOc1cccc(C(=O)NCC2(N3CCOCC3)CCCCC2)c1", "activity, negative = inhibition": "inactive: 1.52%"}, {"smiles": "O=C(NCC1(N2CCOCC2)CCCCC1)c1ccccc1Br", "activity, negative = inhibition": "inactive: 1.41%"}, {"smiles": "CCCCOc1ccccc1C(=O)NCC1(N2CCOCC2)CCCCC1", "activity, negative = inhibition": "inactive: 0.345%"}, {"smiles": "O=C(NCC1(N2CCOCC2)CCCCC1)c1ccc([N+](=O)[O-])cc1", "activity, negative = inhibition": "inactive: 0.267%"}, {"smiles": "O=C(NCC1(N2CCOCC2)CCCCC1)c1ccccc1[N+](=O)[O-]", "activity, negative = inhibition": "inactive: -5.6%"}, {"smiles": "O=C(NCC1(N2CCOCC2)CCCCC1)c1ccccc1", "activity, negative = inhibition": "inactive: -2.18%"}, {"smiles": "CN(C)C1(CNC(=O)c2ccc(C(C)(C)C)cc2)CCCCC1", "activity, negative = inhibition": "inactive: 0.133%"}, {"smiles": "CC(C)(C)c1ccc(C(=O)NCC2(N3CCOCC3)CCCCC2)cc1", "activity, negative = inhibition": "inactive: 4.59%"}, {"smiles": "Cc1ccccc1C(=O)NCC1(N(C)C)CCCCC1", "activity, negative = inhibition": "inactive: 0.751%"}, {"smiles": "COc1cc(C(=O)NCC2(N3CCOCC3)CCCCC2)cc(OC)c1OC", "activity, negative = inhibition": "inactive: 4.85%"}]}]}
